Bioassay records from PubChem.
A selection: hits, their analogues and other compounds. The true share with any hit is near 13%.
KDM4E inh: blocks human JMJD2E demethylase activity; AID 2147; JMJD2E catalytic domain, FDH-coupled NADH fluorescence (FDH is formaldehyde dehydrogenase); Potency, µM (titrated, usually from 57.1 µM), without a hit: at the highest dose activity change, negative = inhibition, actives largely listed as inhibitors; B2RXH2; hit rate 1.6% among 230,000; active means well fitted inhibition curve with a large enough effect, not every such curve was filed as active; inconclusive means small, poorly fitted or top-dose-only effect, or another doubt; inactive means no such curve, though single readings can be large or run the other way;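 further: potency means the concentration at half of the fitted maximal effect; 0% = wells with enzyme and -100% = buffer wells without enzyme; nearly all actives have a fitted effect of over 50% in size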
miR-21 reporter: miR-21 reporter, rising signal | AID 2288 | HeLa miR-21 FLuc reporter, luciferase, 48 h | 340,000 tested, under 10 active | Potency, µM (doses to about 38.3 µM), for inactives: at the top dose reporter change, positive = more light; active = well fitted rising curve with a large enough effect; inconclusive = small, poorly fitted or top-dose-only effect; inactive = no such curve, though single readings can be large or run the other way;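 note: % of control where 0% means no effect; miR-21 action dims this reporter so a rising signal means less miR-21 action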
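Using DMEM plus 10% FBS, HeLa miR-21-FLuc cells are incubated with test compounds (final up to about 40uM) for 48 hours; firefly luciferase signal is then imaged following reagent-mediated lysis.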
Lamin A splicing: changes lamin A minigene splicing in HeLa cells; HeLa LMNA splicing GFP/RFP minigene ratio, 48 h; Potency, µM (top dose mostly 46.1 µM), without a hit: at the highest dose ratio change, negative = inhibition, hits mostly inhibitors; hit rate 0.01% among 200,000; active means well fitted inhibition curve with a large enough effect in the signal ratio, with a control signal flat, not every such curve was filed as active; inconclusive means small, poorly fitted or top-dose-only effect, or effect the other way, or a change in a side signal; the % refers to the signal ratio; further: potency means the concentration at half of the fitted maximal effect; on the % scale 0 is the no-effect control and ±100 the full control effect
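Read-out is the ratio of GFP to DsRed2 object intensity, acquired by 488 nm laser-scanning cytometry on HeLa lamin A-EGFP minigene reporter cells. Compound incubation 48 hrs at 37 °C in Opti-MEM with 2% FBS; DMSO 0.5% final.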
G9a inh: blocks human histone lysine methyltransferase G9a | Potency, µM (highest dose often 102 µM), for the others: at the top dose activity, negative = inhibition, hits mostly inhibitors | hit rate 8.8% among 350,000 | Q96KQ7 | G9a H3K9 monomethylation, AlphaScreen, 2 h; further: potency means the concentration at half of the fitted maximal effect; on the % scale 0 is the no-effect control and ±100 the full control effect; nearly all actives have a fitted effect of over 75% in size
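Chemiluminescent proximity detection of H3K9 monomethylation, read after 10 min bead incubation in the dark. Reaction: 20 nM G9a, 500 nM biotin-H3K9 peptide, 20 uM SAM cofactor, 2 h, room temperature, following 15 min enzyme-compound preincubation.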
ALDH1A1 inh: ALDH1A1 (human) enzyme inhibition; Purified ALDH1A1, NADH fluorescence, propionaldehyde substrate; hit rate 7.3% among 220,000; Potency, µM (series often up to 75.3 µM), for inactives: at the top dose activity, negative = inhibition, hits mostly inhibitors; active means well fitted inhibition curve with a large enough effect, not every such curve was filed as active; inconclusive means small, poorly fitted or top-dose-only effect, or another doubt; inactive means no such curve, though single readings can be large or run the other way;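 further: potency means the concentration at half of the fitted maximal effect; plate controls were no enzyme wells and a reference inhibitor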
Sfp PPTase inh: qHTS Assay for Inhibitors of Bacillus subtilis Sfp phosphopantetheinyl transferase (PPTase); Biochemical Sfp PPTase activity, qHTS; Potency, µM, for inactives: max response, negative = inhibition, actives largely listed as inhibitors; actives 3.5% (n = 310,000); AID 1490, 2009; active = well fitted inhibition curve with a large enough effect; inconclusive = small, poorly fitted or top-dose-only effect, or another doubt; inactive = no such curve, though single readings can be large or run the other way;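 note: the enzyme is Sfp with the accession as filed and its product quenches rhodamine fluorescence; potency is the fitted concentration of half-maximal effect; 0% = enzyme reaction without inhibitor and -100% = no enzyme wells; top concentration of the series not given in the record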
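Step 1, compound plus 15 nM Sfp-PPTase, 15 min, room temperature. Step 2, add rhodamine-CoA (5 uM) and BHQ-2-YbbR (12.5 uM). Step 3, read 525/598 nm fluorescence at 0 and 30 min.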
Starred values were filed as active, the others as inactive; ? = inconclusive; nt = no result given; [ ] = dose if it differs, or a comment. Unless noted, the call rests on the fitted dose curve; in most records, active means well fitted curve in the direction sought with a large enough effect; inconclusive means small, poorly fitted or top-dose-only effect, or another doubt; inactive means no such curve, though single readings can be large; an effect the other way counts as inactive or inconclusive.

| No. | KDM4E inh | miR-21 reporter | Lamin A splicing | G9a inh | ALDH1A1 inh | mol | Sfp PPTase inh |
| --- | --- | --- | --- | --- | --- | --- | --- |
| 1 | ? | -4% | -3% | ? | ? | COC(=O)c1ccccc1NC(=O)Nc1cccs1 | 40µM* |
| 2 | 56% | 0% | nt | 50µM* | nt | COC(=O)C(=N/Nc1ccccc1C(=O)OC)/C(C)=N/O | -8% |
| 3 | -4% | 0% | nt | nt | 8% | Cc1ccc(CN2CCN(C3CCOCC3)CC2CCO)cc1 (stereo not drawn) | 3% |
| 4 | ? | ? | ? | -13%[59 µM] | 5µM* | FC(F)(F)c1cnc(NNC(=S)Nc2ccc(Cl)cc2)c(Cl)c1 | -12% |
| 5 | 8% | 9% | ? | ? | ? | Cc1ccc(NC(=S)NNc2ncc(C(F)(F)F)cc2Cl)c(C)c1 | 10% |
| 6 | -10% | ? | ? | ? | 10µM* | Cc1ccc(NC(=S)NNc2ncc(C(F)(F)F)cc2Cl)cc1 | 13% |
| 7 | -6% | ? | ? | ? | 4.5µM* | Fc1ccc(NC(=S)NNc2ncc(C(F)(F)F)cc2Cl)c(F)c1 | 1% |
| 8 | 8% | nt | nt | nt | -15% | CC[C@@H](C)[C@H]1O[C@]2(CC[C@@H]1C)C[C@@H]1C[C@H](C/C=C(/C)[C@H](O[C@@H]3C[C@H](OC)[C@H](O[C@@H]4C[C@H](OC)[C@@H](O)[C@H](C)O4)[C@H](C)O3)[C@@H](C)/C=C\C=C3CO[C@@H]4[C@H](O)C(C)=C[C@@H](C(=O)O1)[C@]34O)O2 (tested in a mixture with another compound) | -7% |
| 9 | nt | -51% | nt | -9% | nt | Cc1c(C(=O)Nc2ccc3c(c2)OCO3)oc2ccccc12 | -6% |
| 10 | nt | -21% | nt | 35µM* | nt | CSCc1c(C(=O)Nc2ccc3c(c2)OCO3)oc2ccccc12 | -1% |
| 11 | 4% | -3% | 0% | 19% | 8% | Cc1cccc(CSC(=N)N)c1 | 10% |
| 12 | -2% | nt | ? | 3.5µM* | -4% | N=C(N)SCCc1cccc(CCSC(=N)N)c1 | nt |
| 13 | nt | nt | nt | -9%[12.7 µM] | nt | O=C(Cn1cc(C(F)(F)F)ccc1=O)NC1CCCC1 | nt |
| 14 | nt | -3% | 0%[46 µM] | -13%[59 µM] | nt | Cc1ccc(C)c(NC(=O)c2ccc(CN3CC(=O)N4CCCCC4C3=O)cc2)c1 (stereo not drawn) | nt |
| 15 | nt | 1% | nt | -6% | nt | c1ccc(CNCc2ccco2)cc1 | 8% |
| 16 | -5% | nt | 8% | nt | 20µM* | C#CCCCCCCCCCCCc1ccco1 | -21% |
| 17 | 4% | -1% | 9% | 40µM* | -10% | CCN1CCN(c2ncnc3c2nnn3Cc2ccccc2)CC1 | -3% |
| 18 | 4% | 13% | -3% | 25µM* | ? | CC(C)C(=O)Nc1ccc(NC(=O)c2ccccn2)cn1 | -24% |
| 19 | 2% | 6% | 4% | 32µM* | ? | O=C(Nc1ccc(NC(=O)C2CC2)nc1)c1ccccn1 | -27% |
| 20 | -2% | -17% | 6% | ? | 7% | CCC(=O)Nc1ccc(NC(=O)c2ccccn2)cn1 | -21% |
| 21 | ? | -2% | ? | ? | 14µM* | O=C(Nc1ccc(NC(=O)c2ccco2)nc1)c1ccccn1 | -19% |
| 22 | nt | 2% | ? | -18%[12.7 µM] | nt | COc1ccc(Nc2ncc3c(n2)CCN(Cc2cccc(F)c2F)C3)c(OC)c1 | nt |
| 23 | 10% | -9% | -13% | 71µM* | ? | Cc1[nH]c2c(Cl)cccc2c1CCNC(=O)C1CCCCC1C(=O)OCC(F)(F)F (stereo not drawn) | 23% |
| 24 | nt | nt | nt | 50µM* | nt | Cc1nnnn1/C(=C\c1ccccc1)C(=O)OCC(=O)Nc1ccc(Cl)cc1F | nt |
| 25 | -4% | -44% | 4% | -10% | -6% | O=C(Nc1ccc2c(c1)OCO2)c1ccc(Br)o1 | -9% |
| 26 | 7% | 24% | ? | 22%[59 µM] | -3% | Cc1ccc(NC(=O)c2ccc(OC(F)(F)F)cc2)cc1S(=O)(=O)N(C)C | 14% |
| 27 | -2% | -24% | -24%[46 µM] | ? | 14µM* | Cc1ccc(NC(=O)c2ccc(Br)o2)cc1S(=O)(=O)N(C)C | -16% |
| 28 | -3% | -8% | -6% | 50µM* | -1% | Cc1ccc(NC(=O)c2ccncc2)cc1S(=O)(=O)N(C)C | 15% |

Down the list, as entered above.
Sfp PPTase inh, nos. 3–10: 3%, -12%, 10%, 13%, 1%, -7%, -6%, -1%

Of the compounds above, these contain bromine:
| No. | KDM4E inh | miR-21 reporter | Lamin A splicing | G9a inh | ALDH1A1 inh | mol | Sfp PPTase inh |
| --- | --- | --- | --- | --- | --- | --- | --- |
| 25 | -4% | -44% | 4% | -10% | -6% | O=C(Nc1ccc2c(c1)OCO2)c1ccc(Br)o1 | -9% |
| 27 | -2% | -24% | -24%[46 µM] | ? | 14µM* | Cc1ccc(NC(=O)c2ccc(Br)o2)cc1S(=O)(=O)N(C)C | -16% |

Sfp PPTase inh, hit marks shown above
| No. | KDM4E inh | miR-21 reporter | Lamin A splicing | G9a inh | ALDH1A1 inh | mol | Sfp PPTase inh |
| --- | --- | --- | --- | --- | --- | --- | --- |
| 1 | ? | -4% | -3% | ? | ? | COC(=O)c1ccccc1NC(=O)Nc1cccs1 | 40µM* |
